Test results taken from patent publication US6642216B2, “Isoprenoid pathway inhibitors for stimulating bone growth” (ZymoGenetics Corporation, priority 1996, dated 2003).

Test system: neonatal mouse calvaria
Test: Neonatal mouse calvaria assay (in vitro bone formation)
Assay type: cell-based
Design: Osteoblast Number, % increase over vehicle control / New Bone Area, % increase over vehicle control: concentration or dose not given beside the values
Details: Experiment 1

Substance: BMP-2: bone morphogenic protein, control factor, "gold standard" agent for bone growth
- New Bone Area (3 days): 8.4 mm^2 × 10^−3
- New Bone Area, % increase over vehicle control (3 days): 75%
- Osteoblast Number (3 days): 127 Obs/field
- Osteoblast Number, % increase over vehicle control (3 days): 31%
- New Bone Area (7 days): 18.7 mm^2 × 10^−3
- New Bone Area, % increase over vehicle control (7 days): 140%
- Osteoblast Number (7 days): 119 Obs/field
- Osteoblast Number, % increase over vehicle control (7 days): 28%
